Experimental data reported in paper PMC12670387, “A Fragment-Based Electrophile-First Approach to Target Histidine with Aryl-Fluorosulfates: Application to hMcl‑1” (2025).

Protein sequences, listed by entry. Tags and fused reporters are not part of them. Residues count along the entry.
UniProt Q07820, 172-323 limits assumed: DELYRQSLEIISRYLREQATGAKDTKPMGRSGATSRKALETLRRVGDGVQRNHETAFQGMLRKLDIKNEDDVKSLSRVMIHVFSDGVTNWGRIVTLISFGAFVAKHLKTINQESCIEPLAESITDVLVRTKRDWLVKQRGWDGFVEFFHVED

Molecular target: hMcl-1 (Homo sapiens, UniProt Q07820)
Test: DELFIA displacement of biotinylated BH3 peptide ([…] h); intact MS […] covalent adduct; thermal shift ~[…] °C

Question: `O=C(Nc1cncc(OS(=O)(=O)F)c1)C1CCc2ccc(Cl)cc21` (stereo not shown) was tested. Which IC50 did it give?
Answer: The IC50 was 2500 nM.
